System: T84 cells
Test: TER of T84 cells
Conditions: TNF-α 50 ng/ml, p < 0.0005

Tumor necrosis factor-α
stressor effect of TNF-α on TER: significantly reduced T84 cell TER

Source: paper PMC3403872, “Contrasting effects of linaclotide and lubiprostone on restitution of epithelial cell barrier properties and cellular homeostasis after exposure to cell stressors” (BMC Pharmacology, 2012)
